# Source: US9750844B2, “Composition for use in wound healing in burns” (ACADEMIA SINICA, priority 2014, dated 2017)
# Entries after “also recorded” stand apart in the source; their conditions may differ.
# Tests used:
# [1] = Closure of uncontaminated (aseptic) full-thickness wounds in mice; type: in vivo, Balb/C mice
# Description: (§1) The mice were housed individually to prevent fighting and further damage to the wounds, and were given ad libitum access to food and water. The mice were maintained under 12 h/12 h light/dark cycle at a room temperature, and adapted to the environment for at least a week before used in the experiments. Each mouse's hair was removed from the back by shaving, and a full-thickness excisional wound (1 cm in diameter) was created on the back of the mice.
# Each wound was inoculated with 50 μl of broth mix containing 10^6 CFU of the indicated microorganism. The wounds were treated with the antimicrobial peptide according to the invention and collagen at 5 min after inoculation. At 30 min after treatment, wounds were covered with Tegaderm to maintain uniformity and to prevent the loss of the materials as treated. […] At the end of the examination period, the animals were euthanized by CO2 inhalation and the wounds were assessed. […] Each wound was measured and then removed from the animal, with unwounded skin taken from the contralateral abdomen as a control.
# (§2) Tracings were taken immediately after injury. For uncontaminated wounds, wound size was determined every second day. […] Wound areas were determined using the Macintosh Adobe Photoshop program and histological examination. The percentage of wound contraction was calculated as follows: % Wound contraction=(A0−At)/A0×100% […]
# MRSA [2] = test: Assessment of wound infection: bacterial load (CFU) and Gram staining of wound tissue; type: in vivo, Balb/C mice
# Description: Tissue samples were homogenized in PBS. Serially diluted aliquots of homogenate were cultured on Luria-Bertani agar after incubation for 18 h at 37° C., and cfu/g tissue were subsequently calculated. A stable wound infection was defined as 10^6 cfu/g tissue.
# (§3) Full-thickness tissue was harvested for microbial and histological analysis. Samples from each experiment were fixed in 4% buffered paraformaldehyde. Tissue samples were stained with hematoxylin/eosin or Giemsa, and immunohistochemistry (IHC) was analyzed by three independent investigators. Images were taken with a BX-51 microscope (Olympus, Japan).
# Multidrug-resistant strains of Staphylococcus aureus (MRSA) commonly associated with human wound infections were selected to generate a polymicrobial solution. The initial inoculum was prepared by culturing aerobic bacteria in Tryptic Soy Broth (TSB) overnight at 37° C. Broths were subsequently centrifuged at 1000 rpm for 15 min, and resuspended in TSB with 15% glycerol, or chopped meat extract with 15% glycerol (for aerobic bacteria). […] Prior to wound application, the bacterial stocks were re-mixed. Microbial load was determined by direct plating, followed by freeze-thaw and cfu enumeration, in parallel with inoculations. […] The cfu/g of tissue was calculated as follows: cfu/g=plate count (1/dilution)×10/wt. of homogenized tissue.
# [3] = test system: monocytes, macrophages, VEGF; test: Histology (H&E, Giemsa) and immunohistochemistry of wound tissue; type: in vivo, Balb/C mice
# Description: (§4) Elisa kits for […] (Cat no. 555260, BD Biosciences, CA, USA), IL-6 (Cat no. 555240, BD Biosciences, CA, USA), and TNF (Cat no. 558534, BD Biosciences, CA, USA) were used to determine cytokine levels. Antibodies against macrophages (Cat no. 550282, BD Biosciences, CA, USA), monocytes (Cat no. 101301, BioLegend, London, UK), and VEGF (Cat no. 550549, BD Biosciences, CA, USA) were used for immunohistochemistry (IHC). Fish scale collagen peptides (FSCPs) were isolated from tilapia (Oreochromis sp.) by the Seafood Technology Division, Fisheries Research Institute, Council of Agriculture, Taiwan.
# as §3
# MCP-1, IL-6, TNF = test: Serum cytokine/chemokine ELISA in MRSA-infected wounded mice; type: in vivo, Balb/C mice; settings: Day 3 after treatment, compared to positive controls
# Description: as §4
# Each wound was inoculated with 50 μl of broth mix containing 10^6 CFU of the indicated microorganism. The wounds were treated with the antimicrobial peptide according to the invention and collagen at 5 min after inoculation. At 30 min after treatment, wounds were covered with Tegaderm to maintain uniformity and to prevent the loss of the materials as treated. The wounds were examined at Day 3, 7, and 14 after the wounds were created, and the non-contaminated wounds were examined every other day. The wounds were examined to assess the transitions from inflammatory to regenerative and regenerative to resolving phases of the wound healing. At the end of the examination period, the animals were euthanized by CO2 inhalation and the wounds were assessed. For each experiment, four individuals were examined in each group at each time point. Each wound was measured and then removed from the animal, with unwounded skin taken from the contralateral abdomen as a control.
# MRSA [4] = test: MRSA-infected full-thickness skin excision wound in mice: survival, wound closure, angiogenesis; type: in vivo, Balb/C mice
# Description: Six to eight week old Balb/C male mice were used for the examples. MRSA culture and quantification were carried out, and suspensions were serially diluted and spread onto LB-agar plates in duplicate for 24 hours. After the incubation period, colony forming units (CFU) were counted, averaged, and expressed as CFU/ml. All animal handing procedures were in accordance with National Taiwan Ocean University (NTOU) guidelines. All procedures were approved by the Animal Care and Use Committee of NTOU.
# as §1
# Each wound was inoculated with 50 μl of broth mix containing 10^6 CFU of the indicated microorganism. […] At the end of the examination period, the animals were euthanized by CO2 inhalation and the wounds were assessed. […] Each wound was measured and then removed from the animal, with unwounded skin taken from the contralateral abdomen as a control.
# as §2
# Multidrug-resistant strains of Staphylococcus aureus (MRSA) commonly associated with human wound infections were selected to generate a polymicrobial solution. […] Microbial load was determined by direct plating, followed by freeze-thaw and cfu enumeration, in parallel with inoculations. […] The cfu/g of tissue was calculated as follows: cfu/g=plate count (1/dilution)×10/wt. of homogenized tissue. […]
# MRSA [5] = type: cell-based, Staphylococcus aureus
# Description: Minimum inhibitory concentration (MIC) and minimum bactericidal concentration (MBC) antimicrobial assays were performed. For MIC assessment, the antimicrobial peptide, Epi-1, was diluted to final concentrations of […], or 0.78 μg/ml. Twenty microliters of each dilution were mixed in a microtiter plate well with […] of the appropriate bacterial indicator suspension, and 160 μl of Trypticase Soy Broth (TSB) for S. aureus, to a total volume of 200 μl. Three replicates were examined for each S. aureus strain, compound, and concentration. Positive controls contained water instead of compounds, and negative controls contained compounds without bacterial suspensions. Microbial growth was automatically determined by optical density measurement at 600 nm (Bioscreen C, Labsystem, Helsinki, Finland). Microplates were incubated at 25° C. for plant pathogens and at 37° C. for food-borne bacterial strains. Absorbance readings were taken at hourly intervals over a 48 h period. Plates were shaken for 20 seconds before each measurement. The experiment was repeated twice.
smiles,measurement,setting,value
"CC[C@H](C)[C@H](NC(=O)[C@H](CCCCN)NC(=O)[C@@H]1CCCN1C(=O)[C@@H](NC(=O)[C@H](CC(C)C)NC(=O)[C@H](C)NC(=O)[C@H](Cc1ccccc1)NC(=O)[C@H](Cc1ccccc1)NC(=O)CN)[C@@H](C)CC)C(=O)N[C@H](C(=O)N[C@@H](CO)C(=O)N[C@@H](CO)C(=O)N1CCC[C@H]1C(=O)N[C@@H](CC(C)C)C(=O)N[C@@H](Cc1ccccc1)C(=O)N[C@@H](CCCCN)C(=O)N[C@H](C(=O)N[C@@H](CC(C)C)C(=O)N[C@@H](CC(C)C)C(=O)N[C@@H](CO)C(=O)N[C@@H](C)C(=O)N[C@H](C(=O)NCC(=O)N[C@@H](CO)C(=O)N[C@@H](C)C(=O)N[C@@H](CC(C)C)C(=O)N[C@@H](CO)C(=O)N[C@@H](CO)C(=O)N[C@@H](CO)C(=O)NCC(=O)NCC(=O)N[C@@H](CCC(N)=O)C(=O)N[C@@H](CCC(=O)O)C(=O)O)C(C)C)[C@@H](C)O)[C@@H](C)CC [GE33, Pardaxin]",wound healing (FIG. 8A),[1],promoted the wound healing
same,Gram staining of MRSA / Gram-positive microorganisms in wound sections,MRSA [2]; Day 3 after inoculation,reduced
same,colony counts between Days 7 and 17,MRSA [2]; MRSA-contaminated wounds,decreased; also recorded: most rapid decrease
same,"overall epidermal maturation, keratinization and regeneration of the epithelium",[3]; histology of wounds,no signs of irregularity
same,IHC staining of VEGF,"[3]; infected wound, Day 3",increased
same,IHC staining/infiltration of macrophages,"[3]; infected wound, Day 3",significant increase
same,IHC staining/infiltration of monocytes,"[3]; infected wound, Day 3",significant increase
same,induction of IL-6 in serum,"MCP-1, IL-6, TNF",decreased induction
same,induction of MCP-1 in serum,"MCP-1, IL-6, TNF",decreased induction
same,induction of TNF in serum,"MCP-1, IL-6, TNF",decreased induction
same,initial expansion of wound size,MRSA [4]; contaminated full thickness wounds,did not exhibit the initial expansion
same,wound closure time,"MRSA [4]; contaminated wounds, GE33 study (FIG. 8B)",accelerated
same,wound size by 14 days,"MRSA [4]; contaminated wounds, P<0.05",smaller than that of the vancomycin-treated group
same,concentration that effectively killed MRSA,"MRSA [5]; MRSA suspended in 10 mM sodium phosphate buffer, pH 7.2",> 6.25 mg/L
same,minimal inhibitory concentration (MIC),MRSA [5]; against MRSA,> 6.25 µg/mL
same,antibacterial efficacy against MRSA in vitro,MRSA [5]; bacterial proliferation by optical density at 600 nm,anti-bacterial activity against MRSA in vitro
